# Antibody variant affinities, Ab-95 light chain, assay 2

Source: Engelhart et al. 2022 (doi:10.1038/s41597-022-01779-4), MIT Lincoln Laboratory and A-Alpha Bio; data file from the FLAb repository.

The target is the same throughout: PDVDLGDISGINAS, from the HR2 region of SARS-CoV-2 spike.

The variants keep the heavy chain, the linker and the frameworks of Ab-95 (scFv order VH, the linker GGGGSGGGGSGGGGS, VL).
VH: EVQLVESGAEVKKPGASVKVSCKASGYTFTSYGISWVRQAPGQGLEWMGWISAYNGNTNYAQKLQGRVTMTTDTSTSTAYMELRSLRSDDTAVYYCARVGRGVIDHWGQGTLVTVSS
VL: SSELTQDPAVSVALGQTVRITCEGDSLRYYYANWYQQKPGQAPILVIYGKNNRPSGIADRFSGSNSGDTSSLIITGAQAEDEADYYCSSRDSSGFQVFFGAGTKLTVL

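The parent was found by panning a naive human phage display library on the peptide. The library (AAYL52) carries one to three amino acid substitutions per variant, with no insertions or deletions. The scFvs were displayed on barcoded MATa yeast, the peptide on MATalpha yeast. Mating (16 h, 30 °C) was followed by selection of diploids and sequencing of their barcodes. Each replicate has its own calibration line, from reference interactions of the BCL2 family. The assay was run in three technical replicates.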

The whole VL of each variant is written out.
Numbers give log10(Kd / nM), so 0 is 1 nM and 3 is 1 µM. Smaller is tighter.
Replicates are averaged; those with no signal do not enter the mean.
"not detected" marks a missing value. The strain was present, yet no cells mated with the target were sequenced in any replicate, which points to weak or no binding.

VL,mean log10 Kd (nM),seen in,empty controls
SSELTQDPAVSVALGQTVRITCEGDSLRYYYNNWYQQKPGQAPILVIYGKNNTPSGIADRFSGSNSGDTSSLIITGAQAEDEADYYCSSRISSGFQVFFGAGTKLTVL,3.32,1 of 3,2 of 9
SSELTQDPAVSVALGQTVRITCCGDWLVYYYANWYQQKPGQAPILVIYGKNNRPSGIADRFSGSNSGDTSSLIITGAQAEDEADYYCSSRDSSGFQVFFGAGTKLTVL,4.49,2 of 3,5 of 9
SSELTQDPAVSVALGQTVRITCECDSLRYYYANWYQQKPGQAPILVIYGKNNRPSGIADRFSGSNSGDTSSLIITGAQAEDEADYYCSSRDRSGHQVFFGAGTKLTVL,not detected,0 of 3,2 of 9
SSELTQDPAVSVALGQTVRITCTGDSNRYYYANWYQQKPGQAPILVIYGKNNTPSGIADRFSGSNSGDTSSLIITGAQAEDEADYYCSSRDSSGFQVFFGAGTKLTVL,3.73,3 of 3,1 of 9
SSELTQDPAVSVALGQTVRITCVGDSLRYYYANWYQQKPGQAPILVIYGKNNRPHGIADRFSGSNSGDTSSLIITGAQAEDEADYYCSSRDSSGFQVQFGAGTKLTVL,3.56,3 of 3,1 of 9
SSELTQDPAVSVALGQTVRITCKGDSLRYYMANWYQQKPGQAPILVIYDKNNRPSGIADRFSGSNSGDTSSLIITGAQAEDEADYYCSSRDSSGFQVFFGAGTKLTVL,1.35,3 of 3,4 of 9
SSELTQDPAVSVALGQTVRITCEGDSDRKYYANWYQQKPGQAPILVIYGKNNVPSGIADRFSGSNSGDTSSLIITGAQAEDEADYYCSSRDSSGFQVFFGAGTKLTVL,4.44,2 of 3,1 of 9
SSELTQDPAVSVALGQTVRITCEGDSLRYYYANWYQQKPGQAPILVIYEKNCRPSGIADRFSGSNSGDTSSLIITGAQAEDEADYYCSSRDSSGFQFFFGAGTKLTVL,3.21,3 of 3,7 of 9
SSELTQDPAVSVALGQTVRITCTGDSLCYYYANWYQQKPGQAPILVIYGKCNRPSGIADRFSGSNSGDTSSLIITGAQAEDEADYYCSSRDSSGFQVFFGAGTKLTVL,4.53,2 of 3,3 of 9
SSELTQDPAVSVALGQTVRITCEQDSLRYYYANWYQQKPGQAPILVIYGKNNRPSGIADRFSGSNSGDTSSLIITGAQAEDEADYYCSSRDSSGCQSFFGAGTKLTVL,3.77,2 of 3,3 of 9
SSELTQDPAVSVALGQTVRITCWGDSLRYYYANWYQQKPGQAPILVIYGKNSMPSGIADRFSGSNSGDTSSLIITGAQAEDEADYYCSSRDSSGFQVFFGAGTKLTVL,4.13,3 of 3,4 of 9
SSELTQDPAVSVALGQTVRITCHGDSLRYYYANWYQQKPGQAPILVIYGKNSRPSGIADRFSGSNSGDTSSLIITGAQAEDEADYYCSSRDSSGFQAFFGAGTKLTVL,2.95,1 of 3,3 of 9

Continued, with the values leading:

mean log10 Kd (nM),seen in,empty controls,VL
3.54,1 of 3,1 of 9,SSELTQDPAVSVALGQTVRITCEGDSLRYYYAEWYQQKPGQAPILVIYGKVNRPSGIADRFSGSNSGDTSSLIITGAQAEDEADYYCSSSDSSGFQVFFGAGTKLTVL
4.26,2 of 3,3 of 9,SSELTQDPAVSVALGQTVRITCEGDSLRYYYANWYQQKPGQAPILVIYGKNNRPSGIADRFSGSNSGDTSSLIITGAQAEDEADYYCSSRKSSGKQVFFGAGTKLTVL
3.45,2 of 3,2 of 9,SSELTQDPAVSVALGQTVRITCMGDSLRYYYANWYQQKPGQAPILVIYGKNNRPSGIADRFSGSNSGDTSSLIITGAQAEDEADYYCSSRDSSGFQYVFGAGTKLTVL
2.97,3 of 3,4 of 9,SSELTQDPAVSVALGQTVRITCEGDSLIYYYANWYQQKPGQAPILVIYGKNNRPSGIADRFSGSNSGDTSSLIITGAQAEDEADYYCSSRDSSGFQFFFGAGTKLTVL
not detected,0 of 3,0 of 9,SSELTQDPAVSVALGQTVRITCEGDSLRYYYAGWYQQKPGQAPILVIYGKNNRPSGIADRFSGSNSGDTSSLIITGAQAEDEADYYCSNRDSQGFQVFFGAGTKLTVL
3.55,3 of 3,6 of 9,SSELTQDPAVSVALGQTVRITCEGDCLRYYYAAWYQQKPGQAPILVIYGKNIRPSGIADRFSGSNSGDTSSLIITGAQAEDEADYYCSSRDSSGFQVFFGAGTKLTVL
3.29,3 of 3,4 of 9,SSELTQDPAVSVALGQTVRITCEGDSLNYYYANWYQQKPGQAPILVIYGVNNRPSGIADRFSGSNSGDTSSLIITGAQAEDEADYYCSSRDSSGFGVFFGAGTKLTVL
3.90,2 of 3,5 of 9,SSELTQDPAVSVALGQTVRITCEGDSLRYYHANWYQQKPGQAPILVIYGKNNRPSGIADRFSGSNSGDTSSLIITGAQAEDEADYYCSSRDSSGFRDFFGAGTKLTVL
2.17,3 of 3,0 of 9,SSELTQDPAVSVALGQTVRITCEKDSLRYYYAQWYQQKPGQAPILVIYGKNNRPSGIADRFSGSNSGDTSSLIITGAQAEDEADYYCSSRDSSGFQVFFGAGTKLTVL
4.00,1 of 3,5 of 9,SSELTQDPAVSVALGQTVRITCEGDSLRYYYAHWYQQKPGQAPILVIYGKNNRPVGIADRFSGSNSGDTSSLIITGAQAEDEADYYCSSRDSKGFQVFFGAGTKLTVL
3.33,3 of 3,4 of 9,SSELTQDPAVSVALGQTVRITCEGDSLRWYYANWYQQKPGQAPILVIYGKNNRPSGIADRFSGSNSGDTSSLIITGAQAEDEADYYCSVHDSSGFQVFFGAGTKLTVL
5.25,1 of 3,2 of 9,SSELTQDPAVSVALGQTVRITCEPDSLRYYYANWYQQKPGQAPILVIYGKINTPSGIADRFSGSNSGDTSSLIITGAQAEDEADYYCSSRDSSGFQVFFGAGTKLTVL

A selection of 3 entries from above:

VL	mean log10 Kd (nM)	seen in	empty controls
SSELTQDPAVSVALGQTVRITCEGDCLRYYYAAWYQQKPGQAPILVIYGKNIRPSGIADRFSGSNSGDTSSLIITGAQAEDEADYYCSSRDSSGFQVFFGAGTKLTVL	3.55	3 of 3	6 of 9
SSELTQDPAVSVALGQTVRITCEGDSDRKYYANWYQQKPGQAPILVIYGKNNVPSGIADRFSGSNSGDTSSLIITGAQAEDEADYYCSSRDSSGFQVFFGAGTKLTVL	4.44	2 of 3	1 of 9
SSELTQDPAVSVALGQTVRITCTGDSLCYYYANWYQQKPGQAPILVIYGKCNRPSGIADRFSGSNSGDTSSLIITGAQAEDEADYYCSSRDSSGFQVFFGAGTKLTVL	4.53	2 of 3	3 of 9

Three control strains display no target. For library AAYL52, 28% of the pairings with them gave a signal, with a median of 3.91 and one signal in twenty below 2.90, so weak values seen in few replicates may be background. The control count says in how many pairings with the empty strains this scFv gave a signal.